Counter-ions that a name gives are not always drawn.
Target: T1, bovine α1a-adrenoceptor (Bos taurus, UniProt P18130)
T1 construct: expressed in transfected cells; host or cells: COS-7 cells (transient), membranes
T1 sequence (P18130 1-466): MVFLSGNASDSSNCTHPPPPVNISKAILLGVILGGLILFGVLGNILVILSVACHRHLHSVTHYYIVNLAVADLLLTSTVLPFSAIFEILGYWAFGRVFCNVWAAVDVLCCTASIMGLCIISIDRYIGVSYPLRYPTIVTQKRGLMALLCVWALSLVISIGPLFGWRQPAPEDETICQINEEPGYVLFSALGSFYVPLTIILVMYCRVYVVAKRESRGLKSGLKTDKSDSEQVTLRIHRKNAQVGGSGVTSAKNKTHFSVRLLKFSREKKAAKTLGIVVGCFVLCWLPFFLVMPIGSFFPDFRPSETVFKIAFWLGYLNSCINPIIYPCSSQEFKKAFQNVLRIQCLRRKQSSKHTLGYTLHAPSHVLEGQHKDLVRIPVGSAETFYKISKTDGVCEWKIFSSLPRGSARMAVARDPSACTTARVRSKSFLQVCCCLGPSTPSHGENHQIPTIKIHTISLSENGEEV
Experiment: [3H]Prazosin binding, bovine α1a-adrenoceptor in COS-7 cell membranes
Details: COS-7 membranes, read-out: Affinity (Ki) α1a, animal cloned receptors

SMILES: COc1cc2nc(N3CCN(C(=O)c4ccco4)[C@@H]4CCCC[C@@H]43)nc(N)c2cc1OC [Compound B, 4-Amino-6,7-dimethoxy-2-[(4aR,8aS)-4-(2-furoyl)-cis-octahydro-1-quinoxalinyl]-quinazoline hydrochloride]
- Ki: 32.9 nM
